Assay results as given in paper PMC8397634 (Journal of Natural Medicines, 2021).

Sequences of proteins named here, by UniProt entry; tags and fusion partners are left off. Residues count along the entry.
UniProt P17787, 26-502: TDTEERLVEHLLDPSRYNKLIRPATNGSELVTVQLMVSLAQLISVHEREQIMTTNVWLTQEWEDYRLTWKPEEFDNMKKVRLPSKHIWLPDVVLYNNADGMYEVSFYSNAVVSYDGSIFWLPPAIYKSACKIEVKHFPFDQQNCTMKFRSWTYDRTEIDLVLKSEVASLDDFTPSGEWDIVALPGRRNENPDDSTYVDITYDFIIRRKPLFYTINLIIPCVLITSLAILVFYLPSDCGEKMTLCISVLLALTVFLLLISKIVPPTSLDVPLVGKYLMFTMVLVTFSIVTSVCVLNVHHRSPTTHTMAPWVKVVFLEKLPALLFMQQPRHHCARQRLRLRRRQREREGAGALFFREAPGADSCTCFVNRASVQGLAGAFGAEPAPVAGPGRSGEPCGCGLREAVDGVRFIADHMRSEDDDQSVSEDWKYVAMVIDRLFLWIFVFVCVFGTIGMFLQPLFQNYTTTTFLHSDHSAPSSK
UniProt P43681, 29-627 limits assumed: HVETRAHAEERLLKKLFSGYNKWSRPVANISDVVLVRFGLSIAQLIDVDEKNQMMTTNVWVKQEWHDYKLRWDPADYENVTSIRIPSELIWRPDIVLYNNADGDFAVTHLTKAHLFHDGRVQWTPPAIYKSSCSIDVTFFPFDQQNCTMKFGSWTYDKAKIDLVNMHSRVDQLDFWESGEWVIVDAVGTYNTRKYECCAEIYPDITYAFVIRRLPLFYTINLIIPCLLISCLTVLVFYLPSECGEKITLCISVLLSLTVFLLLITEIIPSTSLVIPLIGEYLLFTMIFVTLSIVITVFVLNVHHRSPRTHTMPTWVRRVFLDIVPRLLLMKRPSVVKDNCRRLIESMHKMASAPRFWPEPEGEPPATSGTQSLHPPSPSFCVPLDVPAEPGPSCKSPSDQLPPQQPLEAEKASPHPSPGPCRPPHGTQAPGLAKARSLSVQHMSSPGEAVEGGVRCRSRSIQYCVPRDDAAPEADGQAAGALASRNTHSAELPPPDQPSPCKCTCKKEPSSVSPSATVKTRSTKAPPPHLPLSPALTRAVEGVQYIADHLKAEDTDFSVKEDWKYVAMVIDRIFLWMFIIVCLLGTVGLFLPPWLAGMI

What was measured:
α4β2 nAChRs = α4β2 nAChRs (Homo sapiens, UniProt P17787+P43681); assay: In vitro nAChR functional assay (automated patch-clamp, CHO cells); type: cell-based; conditions: CHO cells stably expressing human α4β2 nAChRs, 24 °C, mean ± SEM (Fig. 1)
Description: Electrophysiological responses were recorded using an automated patch-clamp Patchliner Octo® system (Nanion Technologies, Munich, Germany) equipped with two EPC-10 Quadro patch-clamp amplifiers (HEKA Elektronik, Lambrecht, Germany) as described previously. Chinese hamster ovarian (CHO) cells stably expressing human α4β2 nAChRs (Charles River Laboratories, Wilmington, MA, USA) were used. All experiments were performed at room temperature (24 °C) and repeated at least three times. Data were analyzed using Patchmaster software (HEKA Elektronik). Offline data analysis was performed in Apache OpenOffice™ (v4.1.2; […]). Igor Pro software (v6.2.2.2; WaveMetrics, Lake Oswego, OR, USA) was used to determine EC50 values. […] The average values were then fitted to the Hill equation: I=Baseline+X^∧nH(Imax-Baseline)/X^∧nH+EC50^∧nH, where I is the current response, Baseline is the minimal current response, X is the agonist concentration, nH is the Hill coefficient, Imax is the maximal current, and EC50 is the agonist concentration producing half-maximal activation. […]

[1] = Brain bioavailability assay in zebrafish (UPLC-HRMS of brain homogenate); type: in vivo, Danio rerio; conditions: zebrafish brain after 20-min exposure, linear relationship assumed, mean ± SEM
Description: Four fish (2 males and 2 females) per compound were used to determine the brain bioavailability of the compounds. Immediately after the 20-min compound treatment, the zebrafish were rinsed briefly to remove excessive compound on their body and terminated with 250 mg/L tricaine (CAS No. 886-86-2; Sigma). The fish were decapitated at the level of the gills using a surgical knife. The head was turned dorsal side down, and soft tissue was removed from the ventral side of the skull until the base of the skull was exposed. The skull was broken open and the bone from the ventral side of the brain was removed. The brain was then placed in a microcentrifuge tube, weighed, snap-frozen in liquid nitrogen, and stored at – 80 °C until the analysis.
Briefly, on the day of analysis, the brain samples were defrosted, resuspended in a methanol solution (2:1 [v/v] methanol:MilliQ water), and homogenized with vigorous agitation and ultrasonication (5 min each). The homogenate was centrifuged at 15,000 × rpm for 10 min, and the supernatant was analyzed using a UPLC-Q Exactive Orbitrap-HRMS system (Thermo Fisher Scientific™, Bremen, Germany). Chromatographic separation was achieved on a Synergi™ 4-µm Hydro-RP 80 Å, L.C. Column (250 × 4.6 mm; Phenomenex Inc., Torrance, CA, USA) with 0.1% formic acid in water (mobile phase A) and 0.1% formic acid in acetonitrile (mobile phase B). […]

Substance: ( ±)-nornicotine
- EC50 (α4β2 nAChRs): 4.9 ± 0.7 µM
- EC50 (α4β2 nAChRs; listed as nornicotine): < 8 µM
- Relative brain level per 1 mg/L compound [1]: 0.07 ± 0.01 ng/mg tissue
- Relative brain level per 1 mg/L compound ([1]; listed as nornicotine): less than 0.1 ng/mg tissue
